Results as given in ChEMBL document CHEMBL1159120, “2,4-Diamino-5-methyl-6-substituted arylthio-furo[2,3-d]pyrimidines as novel classical and nonclassical antifolates as potential dual thymidylate synthase and dihydrofolate reductase inhibitors” (Bioorg Med Chem, 2010).

Chains of the proteins cited; added tags and fusions are not shown. Lines headed by an entry give the natural chain unless they say otherwise; changes in a name come on top.
UniProt P04818: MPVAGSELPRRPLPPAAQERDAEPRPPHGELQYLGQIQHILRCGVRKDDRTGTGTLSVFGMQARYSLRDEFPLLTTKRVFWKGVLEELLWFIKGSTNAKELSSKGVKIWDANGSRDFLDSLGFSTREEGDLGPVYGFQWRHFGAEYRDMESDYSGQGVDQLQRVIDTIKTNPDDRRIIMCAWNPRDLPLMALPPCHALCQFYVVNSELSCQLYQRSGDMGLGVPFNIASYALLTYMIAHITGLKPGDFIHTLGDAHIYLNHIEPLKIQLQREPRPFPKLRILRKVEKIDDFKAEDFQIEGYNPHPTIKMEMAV

Target: Thymidylate synthase (Homo sapiens, UniProt P04818)

Cc1c(Sc2ccc(C(=O)N[C@@H](CCC(=O)O)C(=O)O)cc2)oc2nc(N)nc(N)c12
IC50: 5.4 µM
